Earlier results in PMC8480965 (The Journal of General Physiology, 2021).

Columns and labels:
[1] = tested on: Kv2 channels; A-type Kv4 channels; settings: ref Herrington et al., 2006, Liu and Bean, 2014, Speca et al.; cited from earlier work
Kv2.1 (Kv2.1-CHO cells) = molecular target: T1, Kv2.1 (Kv2.1-CHO cells) (Rattus norvegicus, UniProt P15387); settings: 100 nM GxTX; ref Tilley et al., 2019; cited from earlier work
T1 sequence (P15387 1-857): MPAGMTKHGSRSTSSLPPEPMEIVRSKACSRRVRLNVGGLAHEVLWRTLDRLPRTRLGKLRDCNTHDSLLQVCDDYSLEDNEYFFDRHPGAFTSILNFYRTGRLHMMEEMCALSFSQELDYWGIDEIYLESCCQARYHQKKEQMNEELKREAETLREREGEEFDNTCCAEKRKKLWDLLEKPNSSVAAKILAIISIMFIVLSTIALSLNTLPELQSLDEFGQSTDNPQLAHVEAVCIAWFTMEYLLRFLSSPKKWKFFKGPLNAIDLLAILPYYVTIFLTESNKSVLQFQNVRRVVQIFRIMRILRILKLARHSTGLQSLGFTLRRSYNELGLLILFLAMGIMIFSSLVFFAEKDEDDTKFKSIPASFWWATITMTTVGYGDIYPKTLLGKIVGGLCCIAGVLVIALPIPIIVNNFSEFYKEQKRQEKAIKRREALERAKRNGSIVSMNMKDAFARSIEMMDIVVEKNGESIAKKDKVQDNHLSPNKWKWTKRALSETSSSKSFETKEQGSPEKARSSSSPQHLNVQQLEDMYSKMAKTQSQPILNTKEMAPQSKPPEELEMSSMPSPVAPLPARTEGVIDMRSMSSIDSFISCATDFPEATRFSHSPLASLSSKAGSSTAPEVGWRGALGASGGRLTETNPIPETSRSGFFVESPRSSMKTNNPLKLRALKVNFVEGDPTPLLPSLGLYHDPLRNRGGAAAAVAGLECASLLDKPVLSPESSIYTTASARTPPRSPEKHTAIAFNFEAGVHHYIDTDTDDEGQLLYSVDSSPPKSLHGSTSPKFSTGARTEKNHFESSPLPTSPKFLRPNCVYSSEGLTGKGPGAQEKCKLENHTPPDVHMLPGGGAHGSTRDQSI

In the case of “guangxitoxin-1E (EGECGGFWWKCGSGKPACCPKYVCSPKWGLCNFPMP; UniProt P84835 1-36, looked up) [GxTX]”, the “selectivity for Kv2 channels” value [1] is given as “selective for Kv2 channels, with some off-target modulation of A-type Kv4 channels” and the Vmid (Kv2.1 (Kv2.1-CHO cells)) is given as “+67 ± 6 mV”.
